{
  "source": "patent US11518764B2",
  "about": "“Substituted heteroaryls as inhibitors of the BCL6 BTB domain protein-protein interaction” (Ontario Institute for Cancer Research (OICR), priority 2018, dated 2022)",
  "target": "BCL6 BTB domain (Homo sapiens (Human), UniProt P41182)",
  "experiment": "Surface plasmon resonance (SPR) assay",
  "assay_type": "binding",
  "key": {"[1]": {"conditions": "BCL6 BTB domain captured on SA chip, single cycle kinetics, read-out: SPR (KD)"}},
  "note": "Like-named read-outs stand apart in the source and are kept apart here.",
  "data": [
    {"smiles": "C[C@H]1CN(CC2CC2)CCN1c1cc(NC(=O)Cn2cc(-c3cc(C(N)=O)c(O)c(F)c3F)c3c(=O)n(C)cnc32)c(Cl)cn1", "note": "[Compound I-307]", "values": [
      {"measurement": "Kd", "setting": "[1]", "value": 33.4, "unit": "nM"}
    ]},
    {"smiles": "[2H]C1(C([2H])([2H])N2CCN(c3cc(NC(=O)Cn4cc(-c5cc(C(N)=O)c(O)c(F)c5F)c5c(=O)n(C)cnc54)c(Cl)cn3)[C@@H](C)C2)CC1", "note": "[Compound I-370]", "values": [
      {"measurement": "Kd", "value": 48.1, "unit": "nM"}
    ]},
    {"smiles": "COc1c(O)c(C(N)=O)cc(-c2cn(CC(=O)Nc3cc(N4CCN(C)C[C@@H]4C)ncc3Cl)c3nc(C(F)(F)F)n(C)c(=O)c23)c1F", "note": "[Compound I-266]", "values": [
      {"measurement": "Kd", "value": 196, "unit": "nM"}
    ]},
    {"smiles": "C[C@H]1COCCN1c1cc(NC(=O)Cn2cc(-c3cc(Cl)c(O)c(C(N)=O)c3)c3c(=O)n(C)c(N(C)C)nc32)c(Cl)cn1", "note": "[Compound I-263, (S)-3-chloro-5-(7-(2-((5-chloro-2-(3-methylmorpholino)pyridin-4-yl)amino)-2-oxoethyl)-2-(dimethylamino)-3-methyl-4-oxo-4,7-dihydro-3H-pyrrolo[2,3-d]pyrimidin-5-yl)-2-hydroxybenzamide]", "values": [
      {"measurement": "Kd", "setting": "[1]", "value": 141, "unit": "nM"}
    ]}
  ]
}
